For assay [1], the target named is T1, Vascular endothelial growth factor receptor 2 (Homo sapiens, UniProt P35968). Nature of the assay: Inhibition of KDR by HTRF analysis in presence of 1 mM ATP. For orientation: Time-resolved FRET reads energy transfer from a long-lived donor to a nearby acceptor.
Assay [2] deals with T1, Vascular endothelial growth factor receptor 2. In words: Inhibition of human KDR autophosphorylation expressed in mouse NIH/3T3 cells. Format: cell-based, NIH3T3.
For assay [3] the target is unchanged. In words: Inhibition of KDR by TR-FRET analysis.

Chains of the proteins cited; added tags and fusions are not shown.
UniProt P35968, whole entry: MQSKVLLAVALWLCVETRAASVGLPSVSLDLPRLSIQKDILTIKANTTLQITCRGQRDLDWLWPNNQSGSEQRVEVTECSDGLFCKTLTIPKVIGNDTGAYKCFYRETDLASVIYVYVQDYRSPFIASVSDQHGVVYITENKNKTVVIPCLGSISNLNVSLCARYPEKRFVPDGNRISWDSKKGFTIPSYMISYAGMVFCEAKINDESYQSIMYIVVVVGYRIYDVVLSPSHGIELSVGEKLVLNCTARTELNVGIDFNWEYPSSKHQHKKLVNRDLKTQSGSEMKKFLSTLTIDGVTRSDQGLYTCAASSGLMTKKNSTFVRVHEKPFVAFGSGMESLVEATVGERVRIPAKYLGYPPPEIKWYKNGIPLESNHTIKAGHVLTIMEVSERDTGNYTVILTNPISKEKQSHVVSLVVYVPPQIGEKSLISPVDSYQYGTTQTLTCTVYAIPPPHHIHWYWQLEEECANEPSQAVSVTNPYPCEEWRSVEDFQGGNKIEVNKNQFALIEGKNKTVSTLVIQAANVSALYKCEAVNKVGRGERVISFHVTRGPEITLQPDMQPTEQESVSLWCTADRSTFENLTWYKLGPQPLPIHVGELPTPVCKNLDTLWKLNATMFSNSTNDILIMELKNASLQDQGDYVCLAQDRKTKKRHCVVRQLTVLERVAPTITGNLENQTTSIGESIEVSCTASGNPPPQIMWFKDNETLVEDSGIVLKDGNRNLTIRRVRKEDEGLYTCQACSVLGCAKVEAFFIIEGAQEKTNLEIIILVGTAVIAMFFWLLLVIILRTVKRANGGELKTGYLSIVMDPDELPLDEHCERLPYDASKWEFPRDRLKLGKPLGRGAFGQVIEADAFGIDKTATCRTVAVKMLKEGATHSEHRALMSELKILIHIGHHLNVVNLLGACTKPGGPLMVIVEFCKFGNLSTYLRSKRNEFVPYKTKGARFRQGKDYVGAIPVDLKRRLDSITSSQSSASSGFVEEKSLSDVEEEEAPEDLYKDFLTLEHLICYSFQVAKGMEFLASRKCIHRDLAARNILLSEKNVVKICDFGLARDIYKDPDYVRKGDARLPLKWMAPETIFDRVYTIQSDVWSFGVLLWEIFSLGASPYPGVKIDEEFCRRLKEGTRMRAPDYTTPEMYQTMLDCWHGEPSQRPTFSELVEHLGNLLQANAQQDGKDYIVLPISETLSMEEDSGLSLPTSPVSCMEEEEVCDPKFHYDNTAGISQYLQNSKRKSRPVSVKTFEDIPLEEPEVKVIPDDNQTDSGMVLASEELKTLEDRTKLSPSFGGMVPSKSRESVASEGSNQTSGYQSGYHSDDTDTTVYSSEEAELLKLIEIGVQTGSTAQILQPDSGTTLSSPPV

Turning to `Cn1cc(Nc2ncc(Br)c(N[C@H]3[C@@H](C(N)=O)[C@@H]4C=C[C@H]3C4)n2)cn1`, the half-maximal inhibitory concentration (IC50) in assay [1] came out at 13 nM; in assay [2], 9 nM; in assay [3] it was 6 nM.

The IC50 is the concentration needed to halve the response being measured.
